Measurements as given in patent US11661410B2 (GLOBAL BLOOD THERAPEUTICS, INC., priority 2017, dated 2023).

The chains behind the UniProt entries cited, without tags or fusion partners. Where a name states a change or a piece, a line headed by the entry shows the natural chain unless it says otherwise.
UniProt P23975, whole entry, looked up: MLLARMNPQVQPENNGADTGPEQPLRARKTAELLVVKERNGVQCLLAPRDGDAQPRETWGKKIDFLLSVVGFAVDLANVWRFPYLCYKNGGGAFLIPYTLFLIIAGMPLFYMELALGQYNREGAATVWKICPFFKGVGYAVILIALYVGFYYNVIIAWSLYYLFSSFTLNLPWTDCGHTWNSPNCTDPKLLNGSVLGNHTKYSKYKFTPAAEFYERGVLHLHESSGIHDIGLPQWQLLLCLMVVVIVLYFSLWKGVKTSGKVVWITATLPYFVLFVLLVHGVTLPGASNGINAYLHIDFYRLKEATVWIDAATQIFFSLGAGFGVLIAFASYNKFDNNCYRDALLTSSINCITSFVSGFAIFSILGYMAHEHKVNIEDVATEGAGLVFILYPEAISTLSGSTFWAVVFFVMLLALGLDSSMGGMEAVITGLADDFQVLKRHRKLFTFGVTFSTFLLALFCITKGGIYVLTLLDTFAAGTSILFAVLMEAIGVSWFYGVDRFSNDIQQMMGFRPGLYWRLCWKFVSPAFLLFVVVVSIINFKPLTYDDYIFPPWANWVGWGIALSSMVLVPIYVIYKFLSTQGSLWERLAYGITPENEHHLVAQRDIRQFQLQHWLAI
UniProt P28223, whole entry, looked up: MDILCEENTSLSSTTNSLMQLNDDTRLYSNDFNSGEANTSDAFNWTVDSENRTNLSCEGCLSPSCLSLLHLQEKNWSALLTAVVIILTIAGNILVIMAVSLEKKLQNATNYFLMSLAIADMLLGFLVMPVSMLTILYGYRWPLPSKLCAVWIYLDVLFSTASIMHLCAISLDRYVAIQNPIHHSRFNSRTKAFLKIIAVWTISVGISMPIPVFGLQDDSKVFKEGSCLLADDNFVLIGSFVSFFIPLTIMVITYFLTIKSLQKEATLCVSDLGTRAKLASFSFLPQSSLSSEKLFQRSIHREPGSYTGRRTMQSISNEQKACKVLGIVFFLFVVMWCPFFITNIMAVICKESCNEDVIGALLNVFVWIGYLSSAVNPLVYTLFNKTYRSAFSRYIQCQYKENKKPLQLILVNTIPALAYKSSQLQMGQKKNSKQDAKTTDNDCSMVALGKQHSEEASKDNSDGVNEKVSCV
UniProt Q96KQ7: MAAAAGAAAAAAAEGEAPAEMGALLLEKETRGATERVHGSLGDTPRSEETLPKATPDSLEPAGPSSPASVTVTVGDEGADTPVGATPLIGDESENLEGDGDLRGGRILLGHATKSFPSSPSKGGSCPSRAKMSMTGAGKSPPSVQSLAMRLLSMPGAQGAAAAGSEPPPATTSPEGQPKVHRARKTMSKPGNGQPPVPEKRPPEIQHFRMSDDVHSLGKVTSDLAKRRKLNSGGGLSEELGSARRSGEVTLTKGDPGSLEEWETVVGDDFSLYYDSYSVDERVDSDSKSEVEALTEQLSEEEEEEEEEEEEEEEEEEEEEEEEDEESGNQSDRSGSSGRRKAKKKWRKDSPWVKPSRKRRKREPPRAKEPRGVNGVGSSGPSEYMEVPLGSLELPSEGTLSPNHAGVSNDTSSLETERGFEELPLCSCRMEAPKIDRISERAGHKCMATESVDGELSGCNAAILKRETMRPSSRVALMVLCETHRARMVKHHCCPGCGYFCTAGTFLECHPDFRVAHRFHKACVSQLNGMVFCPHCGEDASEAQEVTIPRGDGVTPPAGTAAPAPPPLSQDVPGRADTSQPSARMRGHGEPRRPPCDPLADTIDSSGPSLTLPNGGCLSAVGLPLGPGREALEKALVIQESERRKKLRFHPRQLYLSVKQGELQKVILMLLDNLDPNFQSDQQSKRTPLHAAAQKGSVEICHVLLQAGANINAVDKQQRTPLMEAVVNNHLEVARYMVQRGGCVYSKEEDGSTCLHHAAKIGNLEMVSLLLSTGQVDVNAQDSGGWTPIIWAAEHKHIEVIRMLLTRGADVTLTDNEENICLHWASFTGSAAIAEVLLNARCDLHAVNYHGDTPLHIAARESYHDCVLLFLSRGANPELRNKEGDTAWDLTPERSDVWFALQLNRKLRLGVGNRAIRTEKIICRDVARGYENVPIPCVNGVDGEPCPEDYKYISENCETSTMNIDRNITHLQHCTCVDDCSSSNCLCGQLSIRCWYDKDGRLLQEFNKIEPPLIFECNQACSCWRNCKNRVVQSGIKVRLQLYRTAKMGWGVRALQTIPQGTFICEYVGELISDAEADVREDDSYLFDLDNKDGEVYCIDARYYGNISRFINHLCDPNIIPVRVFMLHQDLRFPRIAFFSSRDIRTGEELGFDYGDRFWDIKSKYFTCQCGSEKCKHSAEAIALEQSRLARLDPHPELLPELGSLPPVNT

Key:
[1] = target: norepinephrine transporter (NET) (Homo sapiens (Human), UniProt P23975); experiment: Safety pharmacological profiling: norepinephrine transporter inhibition; type: binding; details: compound at 10 μM, in duplicate; membranes from cells expressing the transporter
[2] = target: serotonin 5HT2A receptor (Homo sapiens (Human), UniProt P28223); experiment: Safety pharmacological profiling: serotonin 5HT2A receptor ligand binding; details: compound at 10 μM, in duplicate; ligand binding to cell membranes
[3] = target: G9a (Homo sapiens (Human), UniProt Q96KQ7); experiment: G9a AlphaLISA enzymatic activity assay; type: biochemical; details: negative log of the IC50 value in molar

## COc1cc2nc3c(c(NC4CCN(C(C)C)CC4)c2cc1OC)CCC3
[1]
  Norepinephrine Transporter (NET) percent inhibition: 38%
[2]
  Serotonin 5HT2A percent inhibition: 21%

## COc1cc2nc3c(c(N(C(N)=O)C4CCNCC4)c2cc1OC)CCC3
[3]
  pIC50: 6.45
